Like-named read-outs stand apart in the source and are kept apart here.
Columns and labels:
CCL17 [1] = biological target: T1, CCL17 (Homo sapiens, UniProt Q92583); assay: Tryptophan fluorescence assay on CCL17; type: binding; settings: 1.5 μM CCL17, tryptophan fluorescence at 340 nm
T1 construct: codes for the mature CCL17 or CCL22 with an N-terminal thioredoxin-hexahistidin (TRX- (His)6) tag; thioredoxin (TRX) (N, cleaved yes); (His)6 (N, cleaved yes); made in house; host or cells: E. coli BL21 (DE3)
T1 sequence (Q92583 24-94): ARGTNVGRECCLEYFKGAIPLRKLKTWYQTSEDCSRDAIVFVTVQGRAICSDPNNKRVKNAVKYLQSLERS
Protocol: Fluorescence measurements were performed on a spectrofluorometer (JobinYvon/Spex) in a quartz microcuvette at 20 °C. CCL17 and CCL22 (1.5 μM in HEPES buffer without BSA) were excited at 285 nm and emission spectra were recorded (300–400 nm). Initial fluorescence intensities (F0) of CCL17 or CCL22 alone were acquired at 340 nm, followed by subsequent readings (relative fluorescence, F) after sequential addition of 1μl of compounds (GPN279 or GPN136 or C-021 in DMSO) or DMSO alone. The fluorescence emission spectra were corrected by subtracting the emission scan of the compounds alone and data analysis was carried out with fluorescence intensities detected at 340 nm.

CCL17 [2] = biological target: T1, CCL17; assay: TRIC-r calcium assay, neutraligand protocol: compound preincubated with CCL17, EGFP-CCR4+Gqi5+ HEK cells; type: cell-based; settings: 5 nM CCL17 preincubated 1 h with compound, 21 °C; read-out: IC50 for CCL17 neutralization (calcium assay)
Protocol: (§1) EGFP-CCR4^+Gqi5^+HEKcells were loaded with fluorescent Ca^2+-indicator Indo-1 AM (5μM, Interchim) for 45 min at 37 °C. […] Cells (100,000 cells/well, 100μl) were seeded in black clear bottom 96-well plates (Greiner), and centrifuged at 250 × g for 5 min.
(§2) Two plates (96-well plates, Greiner) were prepared for the screen: one containing test compounds alone in order to determine their direct agonistic activity, and another one containing test compounds mixed with CCL17 or CCL22 at room temperature for 1 h (neutraligand protocol). The chemokines and test compounds were prepared at a 3× concentration, while digitonin was prepared at a 4× concentration. […]
(§3) Dye loaded cells were placed in the FlexStation 3 (Molecular Devices). […] The calcium response values (height of peak response over baseline) were determined. […] The Z’ factor[29] was calculated according to the following equation: Z’ = 1-(3SD+ + 3SD−)/|Ave+ − Ave−|, where SD+ and Ave+ are respectively the standard deviation and the mean value of the positive controls (chemokine + DMSO), while SD− and Ave− are respectively the standard deviation and the mean value of the negative controls (HEPES-BSA (0.1%) mixed with DMSO, or cells mixed with C-021). Hit molecules were confirmed by performing concentration-response curves and their half maximal inhibitory concentration (IC50) values were calculated using the Kaleidagraph software.

CCL17 [3] = biological target: T1, CCL17; assay: CCL17-induced CCR4+ HUT78 T cell chemotaxis (Transwell), neutraligand protocol; type: cell-based; settings: 3 nM CCL17 preincubated 1 h with compound; read-out: IC50, inhibition of CCL17-induced HUT78 chemotactic response
Protocol: (§4) Figure 6 (a) Selectivity of CCL17 and CCL22 neutraligands towards 10 chemokines according to the “neutraligand protocol”. Inhibition by DMSO (black bars), GPN279 (grey bars) and GPN136 (white bars) (10 μM) of calcium responses triggered by either 5 nM CCL2 on EGFP-CCR2^+ HEK cells, by 5 nM CCL3, CCL4 and CCL5 on EGFP-CCR5^+ HEK cells, by 5 nM CCL17 and CCL22 on EGFP-CCR4^+ HEK cells, by 5 nM CXCL8 on EGFP-CXCR2^+ HEK cells, by 5 nM CXCL10 and CXCL11 on EGFP-CXCR3^+ HEK cells, or by 5 nM CXCL12 on EGFP-CXCR4^+ HEK cells. Each column represents the mean (block) ± SD (bars) of n = 3 experiments performed in triplicate. *p < 0.05; **p < 0.01; ***p < 0.005 as compared to chemokine + DMSO. (b) Chemokine neutraligands inhibited CCR4 endocytosis induced by CCL22 or CCL17. […] Cell surface EGFP-tagged CCR4 receptors were measured by EGFP antibody labeling and flow cytometry analysis. CCR4 internalization was expressed as a percentage of total receptor surface expression calculated using control cells incubated with DMSO (100%). […] The number of migrating cells in the presence of chemokine and compounds were expressed as the corresponding percentages. Results were analyzed by fitting the experimental curves (% of migrating cells vs log compound concentration) using the Kaleidagraph software program, and the corresponding IC50 values were calculated. […]

CCL22 = biological target: T2, CCL22 (Homo sapiens, UniProt O00626); assay: TRIC-r calcium assay, neutraligand protocol: compound preincubated with CCL22, EGFP-CCR4+Gqi5+ HEK cells; type: cell-based; settings: 10 μM compound, 5 nM CCL22, EGFP-CCR4+ HEK cells
T2 construct: codes for the mature CCL17 or CCL22 with an N-terminal thioredoxin-hexahistidin (TRX- (His)6) tag; thioredoxin (TRX) (N, cleaved yes); (His)6 (N, cleaved yes); made in house; host or cells: E. coli BL21 (DE3)
T2 sequence (O00626 25-93): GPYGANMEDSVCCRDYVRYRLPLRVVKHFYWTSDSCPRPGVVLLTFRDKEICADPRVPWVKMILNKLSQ
Protocol: as §1, §2, §3

CCL17 [4] = biological target: T1, CCL17; assay: CCL17-mediated EGFP-CCR4 receptor internalization (flow cytometry); type: cell-based; settings: 100 nM CCL17, 30 min, 0.03–3 μM compound; read-out: half-maximal efficiency, inhibition of CCL17-mediated CCR4 internalization
Protocol: as §4

Question: CC(C)=CCn1cnc2c1c(=O)n(C)c(=O)n2C [GPN279, 1,3-dimethyl-7-(3-methylbut-2-enyl)-1H-purine-2,6(3H, 7H)-dione] was tested. Which Kd (CCL17 [1]; estimated, read-out: KD, high-affinity binding site class, on CCL17) did it give?
Answer: < 50 nM

Question: And the Kd (CCL17 [1]; read-out: KD, low-affinity binding site class, on CCL17)?
Answer: 57000 nM

Question: What about the IC50 (CCL17 [2]) of the same molecule?
Answer: 7100 ± 1700 nM

Question: What about the IC50 (CCL17 [3]) of the same molecule?
Answer: 0.15 ± 0.01 nM

Question: And the “inhibition of CCL22-evoked calcium responses (selectivity)” value (CCL22)?
Answer: no effect

Question: And the IC50 (CCL17 [4])?
Answer: ~200 nM

From article PMC4595804, “A strategy to discover decoy chemokine ligands with an anti-inflammatory activity” (Scientific Reports, 2015)
